From patent publication US9359313B2, “Use of metformin in combination with a glucokinase activator and compositions comprising metformin and a glucokinase activator” (vTv Therapeutics LLC, priority 2010, dated 2016)

Test: Pharmacokinetic evaluation of three oral UD1 dosage forms in male beagle dogs
Format: in vivo
Settings: 100 mg of UD1
Procedure: For all nine dogs, 100 mg of UD1 was administered orally. Each dog was dosed in a fasted state, where food was provided 4 hours following dosing. Blood samples were taken for pharmacokinetic (PK) evaluation at the following time intervals following dosing: 0.5, 1.0, 2.0, 4.0, 6.0, 8.0, 12.0, and 24.0 hours.

With `CCCO[C@H]1CC[C@H](N(C(=O)Nc2ncc(SCC(=O)O)s2)C2CCCCC2)CC1.CN(C)C(=N)NC(=N)N` [Metformin Salt, 1,1-dimethylbiguanide salt of {2-[3-cyclohexyl-3-(trans-4-propoxy-cyclohexyl)-ureido]-thiazol-5-ylsulfanyl}-acetic acid] the “PK parameters compared with capsule and tablet” value was “improved PK parameters”.
